Source: PubChem (National Center for Advancing Translational Sciences (NCATS))
Compounds with a hit are over-represented: about 3.7% of the library has one in this group of screens.
A549 tox-1: A549 cytotoxicity, counter-screen for Nrf2 inhibitors; AID 504648; A549 ARE-Fluc cells, CellTiter-Fluor viability, 18-24 h; Potency, µM (highest dose often 46 µM), for inactives: at the highest dose activity change, negative = cytotoxicity, usual class: inhibitors; hit rate 0.16% among 390,000; also: potency is read from the fitted curve at half-maximal effect; % is scaled to controls: 0 for no effect and ±100 for the full control effect
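A549 ARE-Fluc cells in 5% FBS OPTI-MEM, 5000 cells/well, rested 2 h then exposed to compounds in concentration-response for 18-24 h at 37 °C. Viability by CellTiter-Fluor fluorescence (Ex 405/Em 525) after 30 min; luciferase luminescence (BugLite, 15 min, RT) read afterwards.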
Nrf2 ARE act: Nrf2 pathway activation. AREc32 ARE-luciferase reporter (MCF7-derived line), luminescence, 24 h. Potency, µM (titrated, usually from 46.1 µM), without a hit: top-dose activation, actives largely listed as activators. hit rate 0.31% among 410,000. AID 624171; also: potency is read from the fitted curve at half-maximal effect; % of control where 0% means no effect; nearly all actives have a fitted effect of over 65% in size
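Nrf2 activation is followed as ARE-luciferase induction in the AREc32 line after one day of compound treatment; luminescence is read with Steady-Glo.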
Nrf2 block: inhibitors of Nrf2 signaling. A549 ARE-Fluc reporter, luciferase luminescence, 18-24 h. Potency, µM (highest dose often 46 µM), inactives show at the top dose activity change, negative = inhibition, most hits filed as inhibitors. hit rate 2.1% among 360,000. AID 504444; also: potency is read from the fitted curve at half-maximal effect; % is scaled to controls: 0 for no effect and ±100 for the full control effect; nearly all actives have a fitted effect of over 60% in size
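Two sequential reads on A549 ARE_Fluc cells exposed to compound for 18-24 h: a CellTiter-Fluor fluorescence read for viability, then a luciferase luminescence read for Nrf2/ARE activity.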
p53 reactivator: restores transcriptional activity of mutant p53. Potency, µM (titrated, usually from 92.2 µM), for the others: at the highest dose activity change, positive = activation, most hits filed as activators. H1299 p53-A138V BP100-luciferase reporter, luminescence, 24 h. hit rate 0.063% among 320,000. AID 504706; also: potency is read from the fitted curve at half-maximal effect; % of control where 0% means no effect; nearly all actives have a fitted effect of over 45% in size
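H1299 (p53-null), stable ts p53-A138V + BP100-Luc; 1000 cells/well, Opti-MEM/10% FBS; cpd 4 pt, 1:5; 24 h, 37 deg C, 5% CO2; detection reagent 10 min RT; luminescence.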
ClpP mod: qHTS Assay for Activators of ClpP. ATP-dependent Clp protease proteolytic subunit (Bacillus subtilis (strain 168)), P80244. purified B. subtilis ClpP, FRET peptide cleavage, 20 min. Potency, µM (highest dose often 57.5 µM), inactives show at the highest dose activity change, negative = active. hit rate 1.9% among 340,000; active = well fitted falling curve with a large enough effect; inconclusive = small, poorly fitted or top-dose-only effect; inactive = no such curve, though single readings can be large or run the other way; also: potency is read from the fitted curve at half-maximal effect; the source files actives as falling curves though it sought activators and does not explain the sign; nearly all actives have a fitted effect of over 65% in size
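Purified B. subtilis ClpP, 10 microg/mL final in Tris/HCl pH8 with KCl, BSA, glycerol and Tween-20, cleaved an Abz/nitrotyrosine-quenched decapeptide. Fluorescence (ex 320, em 430) was read at 0 and 20 min at room temperature. Delta was normalized to 5.8 microM ADEP and DMSO/no-enzyme controls.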
miR-21 reporter: miR-21 reporter, rising signal; HeLa miR-21 FLuc reporter, luciferase, 48 h; Potency, µM (highest dose often 38.3 µM), for the others: top-dose reporter change, positive = more light; 340,000 tested, under 10 active; AID 2288; active = well fitted rising curve with a large enough effect; inconclusive = small, poorly fitted or top-dose-only effect; inactive = no such curve, though single readings can be large or run the other way;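 further: % of control where 0% means no effect; miR-21 action dims this reporter so a rising signal means less miR-21 action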
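Compounds were titrated across several concentrations (up to approximately 40 uM) and incubated 48 hours with HeLa miR-21-FLuc reporter cells (miR-21 target sequence downstream of FLuc, endogenous miR-21). Readout was firefly luciferase luminescence after lytic detection reagent.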
FLuc counter 3: firefly luciferase inhibition, Nrf2 hit validation; shares compounds with Nrf2 block; purified firefly luciferase, luminescence inhibition; Potency, µM (highest dose often 57.5 µM), for inactives: at the top dose activity change, negative = inhibition, hits mostly inhibitors; hit rate 4% among 1,400; AID 720522; also: potency is read from the fitted curve at half-maximal effect; % is scaled to controls: 0 for no effect and ±100 for the full control effect; nearly all actives have a fitted effect of over 65% in size
A549 tox-2: A549 cytotoxicity, Nrf2 inhibitor counterscreen; A549 ARE-Fluc cells, cytotoxicity counterscreen; AID 720523; shares compounds with Nrf2 block; hit rate 2% among 1,400; Potency, µM (doses to about 46.1 µM), for inactives: at the top dose activity change, negative = cytotoxicity, actives largely listed as inhibitors;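 also: potency is read from the fitted curve at half-maximal effect; cells exposed to compounds for 18 to 24 hours; % is scaled to controls: 0 for no effect and ±100 for the full control effect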
Nrf2 ARE inh: Nrf2 inhibition confirmed, A549 ARE-luciferase. shares compounds with Nrf2 block. A549 ARE-firefly luciferase reporter, luminescence. Potency, µM (highest dose often 46.1 µM), for inactives: at the highest dose activity change, negative = inhibition, most hits filed as inhibitors. hit rate 74% among 1,400; also: potency is read from the fitted curve at half-maximal effect; % is scaled to controls: 0 for no effect and ±100 for the full control effect; nearly all actives have a fitted effect of over 65% in size
Active calls of the source: *; ? = inconclusive; · = no result shown. Unless noted, calls follow the shape of the dose curve; as a rule, active = well fitted curve in the direction sought with a large enough effect; inconclusive = small, poorly fitted or top-dose-only effect, or another doubt; inactive = no such curve, though single readings can be large; an effect the other way counts as inactive or inconclusive.

Short keys: A = A549 tox-1; B = Nrf2 ARE act; C = Nrf2 block; D = p53 reactivator; E = ClpP mod; F = miR-21 reporter; G = FLuc counter 3; H = A549 tox-2; I = Nrf2 ARE inh
COc1cc(OC)cc(C(=O)Nc2nc(-c3nnn(-c4ccc(C)cc4)c3C)ns2)c1
  A: 4.2%	B: ?	C: ?	D: ·	E: -11.6%	F: -19.0%	G: ·	H: ·	I: ·
CC1(C)CC(=O)C2=C(C1)OC(N)=C([N+](=O)[O-])C2c1ccc(C#N)s1 (configuration not stated)
  A: 18.9%	B: ?	C: -2.4%	D: 28.6%	E: ·	F: 0.4%	G: ·	H: ·	I: ·
c1ccc(/N=C2\N=C(Nc3ccccn3)c3ccccc32)nc1
  A: -19.3%	B: 0.0%	C: ?	D: ·	E: ·	F: ·	G: ·	H: ·	I: ·
C[C@]12CCC3C(CCC4=CC(O)CC[C@@]43/C=N/O)C1(O)CCC2C1=CC(=O)OC1 (some centres not stated)
  A: -6.4%	B: -3.0%	C: ?	D: 1.2%	E: ·	F: ?	G: ·	H: ·	I: ·
CC(=O)O[C@H]1CC[C@]2(C=O)C3CC[C@]4(C)[C@@H](C5=CC(=O)OC5)CC[C@]4(O)C3CC[C@]2(O)C1 (some centres not stated)
  A: -25.2%	B: ·	C: 0.259µM*	D: ·	E: ·	F: ·	G: 3.8%	H: ?	I: 0.366µM*
COc1ccccc1N=c1scc(-c2ccc(S(=O)(=O)N3CCCC3)cc2)n1C
  A: -17.3%	B: -0.8%	C: 3.66µM*	D: ·	E: -0.6%	F: ?	G: 1.0%	H: -25.7%	I: 6.51µM*
CC(C)N1CC=C(c2c[nH]c3ccccc23)CC1
  A: ?	B: 3.0%	C: 1.64µM*	D: -3.7%	E: -13.8%	F: 18.9%	G: -1.3%	H: -10.3%	I: ·
C[C@H]1CCCC=CC2C[C@H](O)C[C@@H]2[C@H](O)C=CC(=O)O1 (some centres not stated)
  A: ·	B: ·	C: ·	D: ·	E: 0.1%	F: ·	G: 1.4%	H: ?	I: 0.231µM*
C=C(C)[C@@]12OC3(c4ccccc4)O[C@@H]1C1[C@@H]4O[C@]4(CO)[C@@H](O)[C@]4(O)C(=O)C(C)=C[C@H]4[C@@]1(O3)[C@H](C)[C@H]2OC(=O)/C=C/C=C/c1ccccc1 (some centres not stated)
  A: -25.7%	B: -2.4%	C: 0.0052µM*	D: ·	E: -3.4%	F: ·	G: -1.5%	H: ?	I: 0.0184µM*
N#CC(C#N)=Cc1ccc(O)c(O)c1
  A: -0.3%	B: 0.5%	C: -22.9%	D: 4.4%	E: -0.5%	F: ·	G: ·	H: ·	I: ·
CC(C)(C)c1cc(C=C(C#N)C#N)cc(C(C)(C)C)c1O
  A: ?	B: 0.1%	C: 0.651µM*	D: 6.0%	E: 1.7%	F: ·	G: -2.6%	H: ?	I: 1.3µM*
Cc1ccc(-c2cc(-c3ccc(C)cc3)[n+](-c3ccc(C(=O)[O-])cc3)c(-c3ccc(C)cc3)c2)cc1
  A: 3.2%	B: -0.2%	C: 21.1%	D: 20.3%	E: 4.0%	F: ·	G: ·	H: ·	I: ·
Cc1ccc(-c2cc(-c3ccc(C)cc3)[n+](C)o2)cc1
  A: ?	B: 0.3%	C: 5.17µM*	D: 21.0%	E: 14.1µM*	F: ?	G: -19.6%	H: -17.5%	I: 3.66µM*
CC1CCN(C(=O)C2CCN(c3nnc(-n4cccc4)s3)CC2)CC1
  A: -11.6%	B: 0.3%	C: ?	D: 1.8%	E: -1.6%	F: 0.1%	G: ·	H: ·	I: ·
COc1cccc(NC(=O)CCc2nc(-c3ccc(C(C)(C)C)cc3)no2)c1
  A: -2.9%	B: -3.9%	C: 0.259µM*	D: ·	E: 4.4%	F: ?	G: 2.39µM*	H: -4.8%	I: 0.92µM*

Three entries already listed, arranged by molecular weight, rising.
Short keys: A = A549 tox-1; B = Nrf2 ARE act; C = Nrf2 block; D = p53 reactivator; E = ClpP mod; F = miR-21 reporter; G = FLuc counter 3; H = A549 tox-2; I = Nrf2 ARE inh
N#CC(C#N)=Cc1ccc(O)c(O)c1
  A: -0.3%	B: 0.5%	C: -22.9%	D: 4.4%	E: -0.5%	F: ·	G: ·	H: ·	I: ·
COc1cc(OC)cc(C(=O)Nc2nc(-c3nnn(-c4ccc(C)cc4)c3C)ns2)c1
  A: 4.2%	B: ?	C: ?	D: ·	E: -11.6%	F: -19.0%	G: ·	H: ·	I: ·
C=C(C)[C@@]12OC3(c4ccccc4)O[C@@H]1C1[C@@H]4O[C@]4(CO)[C@@H](O)[C@]4(O)C(=O)C(C)=C[C@H]4[C@@]1(O3)[C@H](C)[C@H]2OC(=O)/C=C/C=C/c1ccccc1 (some centres not stated)
  A: -25.7%	B: -2.4%	C: 0.0052µM*	D: ·	E: -3.4%	F: ·	G: -1.5%	H: ?	I: 0.0184µM*

New compounds follow
Short keys: A = A549 tox-1; B = Nrf2 ARE act; C = Nrf2 block; D = p53 reactivator; E = ClpP mod; F = miR-21 reporter; G = FLuc counter 3; H = A549 tox-2; I = Nrf2 ARE inh
COc1ccc(NC(=O)CCc2nc(C3=CCN(Cc4cccc(C)c4)CC3)no2)c(OC)c1
  A: 5.0%	B: 0.5%	C: ·	D: ·	E: 1.7%	F: 15.8%	G: ·	H: ·	I: ·
CN(C[C@H](Cc1ccccc1)N(C[C@H](Cc1ccccc1)N(CCC(C)(C)C)N=O)N=O)N=O
  A: -15.2%	B: -0.9%	C: ?	D: -0.6%	E: -2.8%	F: 1.2%	G: ·	H: ·	I: ·
Cc1ccc(Cn2c(SCc3ccc(C(=O)NC4CCCC4)cc3)nc3ccncc32)cc1
  A: -13.4%	B: -3.6%	C: ?	D: ·	E: -7.2%	F: ?	G: ·	H: ·	I: ·
CC(=O)c1ccc(N2CCN(S(=O)(=O)c3cc(-c4onc(C)c4C)ccc3C)CC2)cc1
  A: -0.7%	B: 0.6%	C: 9.2µM*	D: ·	E: -7.2%	F: 20.9%	G: 2.1%	H: 0.7%	I: 6.51µM*
CC1=CC(O)C(O)C2(C)C1CC1OC(=O)CC3C(C)C(O)C(=O)C2C13CO (configuration not stated)
  A: ?	B: -1.9%	C: 2.06µM*	D: ·	E: -0.4%	F: ·	G: 3.4%	H: -28.9%	I: ·
COC[C@H]1OC(=O)c2coc3c2[C@@]1(C)C1=C(C3=O)C2CCC(=O)[C@@]2(C)C[C@H]1OC(C)=O (some centres not stated)
  A: ·	B: ·	C: ·	D: ·	E: -3.6%	F: ·	G: ·	H: ·	I: ·
Cc1cc(C)c(OCC(=O)N2CCN(c3ncc(C(F)(F)F)cc3Cl)CC2)c(C)c1
  A: -4.8%	B: -0.7%	C: ?	D: -0.3%	E: -1.9%	F: -4.1%	G: ·	H: ·	I: ·
Nc1c(C(=O)Nc2ccc(Br)cc2F)sc2nc3c(cc12)N1CCC3CC1
  A: 9.6%	B: 0.9%	C: -1.7%	D: ·	E: -13.0%	F: -6.6%	G: ·	H: ·	I: ·
CC1=CC(O)C(O)C2(C)C1CC1OC(=O)C(O)C3C(C)C(O)C4(O)OCC13C42 (configuration not stated)
  A: -19.9%	B: -0.5%	C: 2.91µM*	D: ·	E: 0.5%	F: ·	G: -2.0%	H: -24.2%	I: 5.17µM*
